Target: MMP-13 (Homo sapiens, UniProt P45452)
Assay: MMP-13 enzyme inhibition (IC50)
Type: biochemical

For `COc1ccc(S(=O)(=O)N(Cc2cccnc2)c2c(C)cccc2C(=O)NO)cc1` [Compound A, N-Hydroxy-2-[(4-methoxy-benzenesulfonyl)-pyridin-3-ylmethyl-amino]-3-methyl-benzamide], the IC50 was 33 nM.

— patent US6934639B1, “Methods for designing agents that interact with MMP-13” (Wyeth, priority 2000, dated 2005)
